According to patent publication US20100098657A1, “Method of Treating Cancer with Immunomodulatory Compounds and IgG” (priority 2007, published 2010):

System: Fas-L
Test: Fas-L expression on CD56+ NK cells (flow cytometry)
Format: cell-based, human
Settings: IL-2 10 ng/mL with immobilized IgG
Description: Cytometry was undertaken on 50 μL samples containing 1×10^6 cells/mL in washing buffer, 2% FBS with 0.1% NaN3 in PBS. Fluorochrome-conjugated antibodies, unconjugated antibodies, and isotype control mAb were obtained from PharMingen (San Diego, Calif.). The cells were stained with anti-CD56-PE, anti-FasL-FITC or isotype control mAb (1 μg/10^6 cells), and analyzed by flow cytometry according to the manufacturer's instructions.

IL-2: cytokine interleukin-2 (R&D Systems)
NK cell Fas-L expression: comparable to lenalidomide treatment
